Bioassay records (PubChem)
GIV-Gai inh: inhibitors of GIV GBA-motif binding to rat Galpha-i3. actives 0.42% (n = 210,000). Galpha-i3/FITC-GIV peptide fluorescence polarization, 90 min; active compounds read low; scaled: aluminum fluoride 0%, vehicle 100%. AID 1224905. percent of control (FP), % (no concentration beside the values). P08753;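 active means replicate mean at 85% of control or lower, very high polarization wells dropped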;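 further: wells of about 15 µL received 100 nL stock; the first replicate is given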
HCMV UL50-53 inh: disrupts HCMV UL50-UL53 complex binding; HTRF UL50-UL53 interaction, normalized percent inhibition; inhibition, % (concentration not given with the values); hit rate 0.15% among 190,000; AID 1918969; in the data active = inhibition above about 27%, passing the limit was not always enough
Numbers stand for hits; – = inactive; · = not tested or not shown; ! = repeats disagree. Sampled rows, rich in hits. Any-hit rate of the full collection: about 0.43%.

SMILES	GIV-Gai inh	HCMV UL50-53 inh
CN(C)c1ccc(C=C2C(=O)OC(C)(C)OC2=O)cc1	–	–
CCN(CC)c1ccc(C=C2C(=O)OC3(CCCC3)OC2=O)cc1	-26	–
O=S(=O)(NC1CCCc2ccccc21)c1ccc(-c2cnc(C3CCC3)o2)s1 (configuration not stated)	–	·
COc1cc(/C=C2\Sc3ccccc3C2=O)cc(Cl)c1OC(C)C	–	–
O=c1c2ccc(NCCO)c3cccc(c32)c2nc3ccccc3n12	-52	·
O=C(O)c1ccc2c3c1cccc3c(=O)n1c3ccccc3nc21	·	–
Cc1c(C(=O)N2c3ccc(F)cc3CCC2C)sc2ncn(Cc3ccccc3Cl)c(=O)c12 (configuration not stated)	–	·
Cc1nnc(N2CCCC(C(=O)NCc3ccccn3)C2)c2nn(-c3ccc(Cl)cc3)c(C)c12 (configuration not stated)	–	–
Nc1ccccc1C1C=NNC1=O (configuration not stated)	–	–
CCN(CC)c1ccc(C=C2C(=O)c3ccccc3C2=O)c(O)c1	-64	–
CCN(CC)c1ccc(/C=N/NC=O)c(O)c1	·	–
CC(C)NCC(O)COc1ccccc1 (configuration not stated)	–	–
CC(COc1ccccc1)N(CCCl)Cc1ccccc1 (configuration not stated)	–	89!
CCNc1cc(NCC)c2noc3c2c1C(=O)c1ccccc1-3	–	–
CCOC(=O)C1CCN(c2cc(NCC(=O)O)c3c4c(onc24)-c2ccccc2C3=O)CC1	-57	–
CCN1CCN(c2cc(NCC(=O)O)c3c4c(onc24)-c2ccccc2C3=O)CC1	–	–
CC(C)CNc1cc(N2CCCC2)c2noc3c2c1C(=O)c1ccccc1-3	–	–
CCNc1ccc2noc3c2c1C(=O)c1ccccc1-3	-48	–
O=C1c2ccccc2-c2onc3c(Br)cc(NCc4ccccc4)c1c23	-21	·
Cc1cccc(Nc2cc(NCc3ccccc3)c3noc4c3c2C(=O)c2ccccc2-4)c1	–	·
CCNc1cc(N2CCCCCC2)c2noc3c2c1C(=O)c1ccccc1-3	-20	–
O=C(c1ccc(Br)cc1)N1CCN(CCc2ccccn2)CC1	–	–
CCOC(=O)N1CCN(c2cc(NCCC(=O)O)c3c4c(onc24)-c2ccccc2C3=O)CC1	-79	·
CCOC(=O)N1CCN(c2cc(NCCCC(=O)O)c3c4c(onc24)-c2ccccc2C3=O)CC1	-74	–
O=C(O)CCCNc1cc(N2CCCC2)c2noc3c2c1C(=O)c1ccccc1-3	–	–
SMILES	GIV-Gai inh	HCMV UL50-53 inh
CCCCNc1cc(N2CCN(C3CCCCC3)CC2)c2noc3c2c1C(=O)c1ccccc1-3	–	–
Cc1cc(C)cc(N2C(=O)c3cc4ccsc4n3CC2(C)C(=O)NC2CCCC2)c1 (configuration not stated)	–	–
CCOc1ccc(N(CC(=O)N2CCN(c3ccccc3OC)CC2)S(=O)(=O)c2ccc(SC)cc2)cc1	–	–
CCSc1nnc2c(n1)OC1(Nc3ccccc3-2)C(=O)Nc2ccc(Br)cc21 (configuration not stated)	·	–
CSc1nnc2c(n1)OC1(Nc3ccccc3-2)C(=O)Nc2ccc(Cl)cc21 (configuration not stated)	–	50
CC(=Nc1cccc(Br)c1)c1sc2ccccc2c1O	56	–
CC(=Nc1cccc(O)c1)c1sc2ccccc2c1O	–	–
O=C1c2cnccc2CN1c1cc(F)ccc1F	–	35
COC(=O)c1sccc1N1Cc2ccncc2C1=O	–	–
CCN(CC)c1ccc2cc(C(=O)NC3CCCCC3)c(=O)oc2c1	·	–
CCN(CC)c1ccc2cc(C(=O)Nc3ccc(NC(C)=O)cc3)c(=O)oc2c1	83	–
CCN(CC)c1ccc2cc(C(=O)Nc3cccc(C(F)(F)F)c3)c(=O)oc2c1	–	–
CCN(CC)c1ccc2cc(NC(=O)CCC(=O)O)c(=O)oc2c1	84	–
O=C(CCCC[C@@H]1SC[C@@H]2NC(=O)N[C@@H]21)NCCCC[C@H](NC(=O)CCN1C(=O)C=CC1=O)C(=O)O	·	–
Cc1ccc(-n2nc(C(=O)N(C)c3ccc(F)cc3)c3c4ccccc4n(C)c3c2=O)cc1	–	–
O=C(c1ccccc1)c1nc2ccccc2oc1=O	·	–
O=c1oc2ccccc2nc1/C=C(\O)c1cccs1	-69	–
CCCN1C(=S)N(CCO)C(=O)/C1=C/C=C1/Oc2ccccc2N1CCC(=O)O	-20	–
CCN1/C(=C/C=C2/C(=O)N(C)C(=S)N2C)Oc2ccccc21	–	–
COC(=O)/C=C/c1cc2ccccc2o1	–	–
COc1ccc(N2CCN(C(=O)CCNC(C)=O)CC2)cc1	·	–
O=S(=O)(/N=C1\C=C2N(CCO)CCOC2(O)c2ccccc21)c1ccccc1 (configuration not stated)	–	·
O=S(=O)(/N=C1\C=C2N(CCO)CCOC2(O)c2ccccc21)c1ccc(F)cc1 (configuration not stated)	–	40
C=CCn1c(=O)[nH]c2nc3cc(N=CN(C)C)c(C)cc3nc2c1=O	-16	·
C=CCn1c(=O)[nH]c2nc3cc(N=CN(C)C)ccc3nc2c1=O	–	–
SMILES	GIV-Gai inh	HCMV UL50-53 inh
O=C1Cc2ccccc2C(=O)N1	·	100
O=C1CC(=O)Nc2ccccc2N1	–	–
CCCN1C(=O)/C(=C/c2c(N3CCCC3)nc3ccccn3c2=O)SC1=S	-60	–
CCN1C(=O)/C(=C/c2c(N3CCCCC3)nc3ccccn3c2=O)SC1=S	-75	–
CC1CCN(c2nc3ccccn3c(=O)c2/C=C2/SC(=S)N(C3CCCCC3)C2=O)CC1	–	·
C=CCN1C(=O)/C(=C/c2c(N3CCCCC3)nc3ccccn3c2=O)SC1=S	-36	·
COCCCN1C(=O)/C(=C/c2c(N3CCN(C)CC3)nc3c(C)cccn3c2=O)SC1=S	62	–
CN1CCN(c2nc3ccccn3c(=O)c2/C=C2\SC(=S)N(Cc3ccco3)C2=O)CC1	–	–
CCCCN1C(=O)/C(=C/c2c(N3CCN(CCO)CC3)nc3ccccn3c2=O)SC1=S	–	·
Cc1cccn2c(=O)c(/C=C3\SC(=S)N(CCc4ccccc4)C3=O)c(N3CCCC3)nc12	–	–
C=Cc1ccc(COC(=O)c2nnn(-c3ccc(C)c(C)c3)c2C)cc1	–	–
CCC(C(=O)NCCc1ccccc1Cl)n1nc(C)c2sc3ccccc3c2c1=O (configuration not stated)	–	–
O=C(Cc1ccc(F)cc1)N1CC(OCc2ccc(F)cc2Cl)C1	–	–
NNc1nc(C(F)(F)F)nc2c1cnn2Cc1ccccc1	·	–
CCn1c(=O)c(C(=O)CSc2nnc3ccccn23)c(N)n(Cc2ccccc2)c1=O	·	–
C=CCN1C(=O)/C(=C/c2c(Sc3ccccc3)nc3ccccn3c2=O)SC1=S	-36	·
C=CCN1C(=O)/C(=C\c2cccs2)SC1=S	·	–
COc1ccc(-c2cc(-c3ccccc3O)nc(NC(N)=S)n2)cc1	·	51
NNc1nc(-c2ccccc2)cc(-c2ccccc2O)n1	–	·
Cc1ccc(N=c2ssc3c2-c2cc(C)cc(C)c2NC3(C)C)cc1	–	·
Cc1cc(N2C(=O)CN(S(C)(=O)=O)CC2(C)C(=O)NC2CCCC2)ccc1Br (configuration not stated)	–	–
Cc1ccc(S(=O)(=O)Nc2nc3n(n2)C(c2ccc(Cl)cc2)C=C(c2ccccc2)N3)cc1 (configuration not stated)	-66!	–
